The experiment deals with human carbonic anhydrase II (hCAII) (Homo sapiens, UniProt P00918). The experiment is described as follows: hCAII functional assay (pNP-OAc hydrolysis) with SABA-modified peptides. The class given is biochemical. To be noted: native (unmodified) peptide. The protocol:
A functional assay for hCAII enzyme was set up. Carbonic anhydrase catalyzes the hydrolysis of 4-nitrophenyl acetate (4-NPA) to nitrophenol, which can be monitored by absorbance at 400 nm. The enzymatic carbonic anhydrase assay generally includes 0.2-1.0 μM enzyme and 10-500 μM 4-NPA in 20-200 μL in assay buffer. […] Metal chelating agents (EDTA or EGTA), salt (NaCl, sulfate), detergent (Tween or Triton), and organic additives (acetonitrile, DMSO) may be employed to facilitate enzyme stability and reagent solubility. For the assay, 1 μM human carbonic anhydrase II, 50 mM MOPS (pH 7.6), 33 mM disodium sulfate, and 1 mM EDTA. To generate NTM-modified peptides, azide-derivatized peptides (via azide-PEG-amine and carbodiimide coupling to C-terminus of peptide) were conjugated to DBCO-coupled beads. […] To evaluate P1 dependence of the binding reaction, multiple P1 residues has been tested.

SMILES strings stand for the structures.

As for `C[C@H](NC(=O)[C@H](C)NC(=O)[C@@H](N)Cc1ccccc1)C(=O)N[C@@H](C)C(=O)N[C@@H](CCC(=O)O)C(=O)O` [FAAAE, reference compound], the binding/inhibition entry was “No significant binding/inhibition”.

Values taken from US12467928B2, “N-terminal modifier agents and binders for treating and analyzing peptides” (Encodia, Inc., priority 2023, dated 2025).
